Earlier results on one compound are cited in patent publication US8946301B2, “Targeting of T-lymphocytes to treat amyotrophic lateral sclerosis” (ALS Therapy Development Institute, priority 2011, dated 2015).

By UniProt entry, the sequences of proteins in these tests, tags left out.
UniProt P21453, whole entry: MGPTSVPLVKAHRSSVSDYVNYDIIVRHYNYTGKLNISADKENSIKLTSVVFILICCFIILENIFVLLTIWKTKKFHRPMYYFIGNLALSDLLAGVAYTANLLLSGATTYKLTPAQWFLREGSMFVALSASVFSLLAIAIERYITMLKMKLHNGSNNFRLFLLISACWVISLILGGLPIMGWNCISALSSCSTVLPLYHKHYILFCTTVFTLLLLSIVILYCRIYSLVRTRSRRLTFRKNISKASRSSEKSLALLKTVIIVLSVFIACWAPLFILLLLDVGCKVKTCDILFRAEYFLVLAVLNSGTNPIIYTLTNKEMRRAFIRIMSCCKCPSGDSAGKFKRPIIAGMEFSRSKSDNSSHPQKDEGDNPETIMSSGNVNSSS

The data set has as its target T1, sphingosine-1-phosphate-1 receptor (Homo sapiens, UniProt P21453).
T1 construct: host or cells: thymocytes and lymphocytes
The conditions noted are these: on thymocytes and lymphocytes, after phosphorylation; Kappos et al. 2006; cited from earlier work.

For `CCCCCCCCc1ccc(CC[C@](N)(CO)COP(=O)(O)O)cc1` [fingolimod-P], the “action at sphingosine-1-phosphate-1 receptor” value is given as “superagonist”.
